One experiment addresses Human PARP-1 enzyme (Homo sapiens, UniProt P09874). Put plainly: In vitro Scintillation Proximity Assay (SPA) for PARP-1 inhibitory activity. The procedure: Compounds of the present invention were tested in an in vitro assay based on SPA technology (proprietary to GE healthcare).
In principle, the assay relies upon the well established SPA technology for the detection of poly(ADP-ribosyl)ation of biotinylated target proteins, i.e histones. This ribosylation is induced using nicked DNA activated PARP-1 enzyme and [^3H]-nicotinamide adenine dinucleotide ([^3H]-NAD^+) as ADP-ribosyl donor.
Histones (type II-A, supplier: Sigma) were biotinylated using the biotinylation kit of Amersham and stored aliquoted at −20° C. A stock solution of 100 mg/ml SPA poly(vinyl toluene) (PVT) beads (supplier: Amersham) was made in PBS. A stock solution of 61.6 nM [^3H]-NAD^+ was made by adding [^3H]-NAD^+ (0.1 mCi/ml, supplier: Perkin Elmer) to incubation buffer (50 mM Tris/HCl, pH 8; 0.2 mM DTT; 4 mM MgCl2). A solution of 4 mM NAD^+ (supplier: Sigma) was made. Human PARP-1 enzyme was obtained from Trevigen. Biotinylated histones and PVT-SPA beads were mixed and pre-incubated for 30 min. at room temperature. PARP-1 enzyme (concentration was lot dependent) was mixed with the nicked DNA and the mixture was pre-incubated for 30 min. at 4° C. Equal parts of this histones/PVT-SPA beads solution and PARP-1 enzyme/DNA solution were mixed and 75 μl of this mixture together with 1 μl of compound in DMSO and 25 μl of [^3H]-NAD^+ was added per well into a 96-well microtiterplate. The final concentrations in the incubation mixture were 2 μg/ml for the biotinylated histones, 2 mg/ml for the PVT-SPA beads, 0.25 μg/ml for the nicked DNA and between 0.1-0.2 μg/ml for the PARP-1 enzyme. […] The beads were sedimented by centrifugation (10 min, 800 rpm). and plates transferred to a TopCountNXT™ (Packard) for scintillation counting, values were expressed as counts per minute (cpm). […] For each sample, the amount of cpm was expressed as a percentage of the mean cpm value of the controls. […] Herein the effects of test compounds are expressed as pIC50 (the negative log value of the IC50-value). […]
(In general: SPA uses beads or plates that emit light when radiolabelled molecules are held near them.)

The chains behind the UniProt entries cited, without tags or fusion partners.
UniProt P09874, whole entry: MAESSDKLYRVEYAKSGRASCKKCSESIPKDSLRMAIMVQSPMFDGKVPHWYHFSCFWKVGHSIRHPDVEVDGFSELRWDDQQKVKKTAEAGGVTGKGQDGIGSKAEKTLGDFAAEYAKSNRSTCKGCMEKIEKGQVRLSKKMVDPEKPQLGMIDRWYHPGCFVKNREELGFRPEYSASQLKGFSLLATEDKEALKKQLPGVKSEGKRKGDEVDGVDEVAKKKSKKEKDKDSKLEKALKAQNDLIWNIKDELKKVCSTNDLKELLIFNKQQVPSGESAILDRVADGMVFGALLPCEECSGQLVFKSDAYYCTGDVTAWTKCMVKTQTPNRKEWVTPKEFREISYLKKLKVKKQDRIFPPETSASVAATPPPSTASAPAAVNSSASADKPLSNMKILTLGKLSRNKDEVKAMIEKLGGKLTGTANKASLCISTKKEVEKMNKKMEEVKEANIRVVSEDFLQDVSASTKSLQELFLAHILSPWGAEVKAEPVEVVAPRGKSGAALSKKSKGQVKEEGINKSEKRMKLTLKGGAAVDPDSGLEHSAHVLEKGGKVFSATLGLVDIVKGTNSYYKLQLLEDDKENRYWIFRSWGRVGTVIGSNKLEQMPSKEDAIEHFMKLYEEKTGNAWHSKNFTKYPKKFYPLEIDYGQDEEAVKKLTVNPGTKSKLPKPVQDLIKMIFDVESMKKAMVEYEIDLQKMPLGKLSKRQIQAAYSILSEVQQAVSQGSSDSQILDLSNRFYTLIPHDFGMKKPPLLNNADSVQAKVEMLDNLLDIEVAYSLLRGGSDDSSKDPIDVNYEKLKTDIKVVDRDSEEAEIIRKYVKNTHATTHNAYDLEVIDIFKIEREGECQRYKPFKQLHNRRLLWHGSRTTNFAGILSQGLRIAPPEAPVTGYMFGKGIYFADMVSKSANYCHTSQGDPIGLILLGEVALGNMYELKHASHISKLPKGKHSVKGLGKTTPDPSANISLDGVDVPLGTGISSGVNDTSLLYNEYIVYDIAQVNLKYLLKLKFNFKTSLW

Another experiment concerns PC3 cells. Put plainly: EB1 Comet (microtubule disruption) assay. To be noted: 1 hour treatment. As to the method: The Eb1 Comet assay relies on the detection of the Eb1 protein at the plus end of polymerizing microtubules (Mimori-Kiyosue, 2000) using indirect immunofluorescence. Disruption of microtubule dynamics through de-polymerization or stabilization results in a de-localization of Eb1 from the growing microtubule ends and this is visualized by the disappearance of Eb1 containing cytoplasmic foci.
Briefly, human prostate cancer PC3 cells obtained from the American Type Culture Collection were grown in 96-well plates (Greiner, cat. no. 655090) in HAM's F12 medium as recommended by the provider (ATCC). The cells were treated for 1 hour at 37° C. with compounds dissolved in DMSO (0.6% final DMSO concentration). The culture medium was then removed by aspiration and the cells were fixed by adding cold methanol (−20 C). After a 15 min. incubation at −20 C, the cells were washed twice with DPBS (Gibco) containing 0.5% Triton X-100. Mouse Eb1 antibody (BD Transduction Laboratories, cat. no. 610534) was added to the cells (1/250 dilution in DPBS containing 1% BSA) and incubated overnight at room temperature. […] Compound dependent microtubule disruption was visually determined by the disappearance in Eb1 foci. The lowest active concentration (LAC) was determined as the concentration where Eb1 foci were absent in at least 50% of the treated cells.

Another experiment deals with tubulin. Put plainly: Tubulin polymerization assay. To be noted: tested at 20 μM and 5 μM. As to the method:
The tubulin polymerization assay is an adaptation of an assay originally described by Bonne, D. et al. (J. Biol. Chem., 1985, 260:2819-25). The assay kit was purchased from Cytoskeleton, Inc. (catalogue number BK011) and the assay was performed as described by the supplier with the following modifications. The assay was run in a 384-well black Proxiplate (Perkin Elmer) and volumes were adapted accordingly. The reactions were carried out in a final volume of 10 μl. Compounds were added to 25 μl of the reaction mix in 96-well PP plates (Corning) on ice and 10 μl of this mixture was dispensed into duplicates of the 384-well Proxiplates pre-warmed to 37° C. in a Fluoroskan Ascent plate reader (Thermo Scientific). Fluorescence measurements were taken every minute for one hour. The maximum slope of each well was determined (linear regression through 4 consecutive points) and polymerization was calculated as a percentage of polymerization observed in the absence of compound. Compounds were first measured at a concentration of 20 μM and then at 5 μM for those showing more than 50% inhibition at 20 μM as compared to the polymerization observed in the absence of compound. Results are reported in Table F-2 as scores defined as: a compound showing 0 to 50% inhibition at 20 μM is reported as score 1; a compound showing more than 50% inhibition at 5 μM is reported as score 3.

Take `CCc1cc2ccc(C(C)(C#N)Cc3cccc([N+](=O)[O-])c3)cc2[nH]c1=O` (stereo not shown): the “in vitro SPA assay PARP-1 pIC50” value on Human PARP-1 enzyme is reported as 7.3.

Turning to `CCc1cc2ccc(C(C)(C#N)C3CCc4c(Cl)ccnc43)cc2[nH]c1=O` (single isomer, unassigned) [247], the “in vitro SPA assay PARP-1 pIC50” value on Human PARP-1 enzyme is listed as 7.5. Further, the “EB1 pLAC” value in the experiment on PC3 cells came to 7. In addition, in the experiment with tubulin, the tubulin polymerisation score is 3 (a compound showing more than 50% inhibition at 5 μM is reported as score 3).

Consider `CCc1cc2ccc(C(C)(C#N)C3CCc4c(Cl)ccnc43)cc2[nH]c1=O` (single isomer, unassigned) [246], for which the “in vitro SPA assay PARP-1 pIC50” value at Human PARP-1 enzyme is 7.7. Also, in the experiment with PC3 cells, the “EB1 pLAC” value turned out to be 8. The tubulin polymerisation score in the experiment with tubulin was 3 (a compound showing more than 50% inhibition at 5 μM is reported as score 3).

These data come from patent publication US8778966B2, “Quinolinone derivatives as PARP and tank inhibitors” (Janssen Pharmaceutica, NV, priority 2007, dated 2014).
